Data on one substance can be found in US10466253B2, “Molecular flux rates through critical pathways measured by stable isotope labeling in vivo, as biomarkers of drug action and disease activity” (The Regents of the University of California, priority 2004, dated 2019).

In the data set the test system is brain galactocerebroside (GalCer). Briefly: Fractional synthesis of myelin (deuterium incorporation into galactocerebroside). The note with it: during cuprizone treatment.

As to cuprizone, the “synthesis of galactocerebroside (GalCer) in the brain” value is “suppress synthesis”. Moreover, under “deuterated water for last 3 weeks, control 12% new in 3 weeks”, the “fractional synthesis of GalCer” value is “about 5 % new”.
